Test results from article PMC8082182 (Frontiers in Pharmacology, 2021).
Like-named read-outs stand apart in the source and are kept apart here.

Conditions: for AUC0–24, median: IQR not reported for n < 5

In the case of `CN[C@H](CC(C)C)C(=O)N[C@H]1C(=O)N[C@@H](CC(N)=O)C(=O)N[C@H]2C(=O)N[C@H]3C(=O)N[C@H](C(=O)N[C@H](C(=O)O)c4cc(O)cc(O)c4-c4cc3ccc4O)[C@H](O)c3ccc(c(Cl)c3)Oc3cc2cc(c3O[C@@H]2O[C@H](CO)[C@@H](O)[C@H](O)[C@H]2O[C@H]2C[C@](C)(N)[C@H](O)[C@H](C)O2)Oc2ccc(cc2Cl)[C@H]1O` [vancomycin], the “AUC0–24, median” value (Central nerve system, Not improved patients) is reported as 200.1 µg·h/mL, the “AUC0–24, median (IQR)” value (Endocarditis, Improved patients) is reported as 213.4 (195.3, 239.1) hr*mg/L and the “AUC0–24, median (IQR)” value (Overall, Not improved patients) is reported as 212.6 (204.20, 314.50) hr*mg/L. The “AUC0–24, median” value (Pulmonary, Not improved patients) was 213.1 µg·h/mL and the “AUC0–24, median” value (Urinary tract, Not improved patients) was 212.1 µg·h/mL.
